Target: LRRK2 G2019S (Homo sapiens (Human), UniProt Q5S007, G2019S)
Experiment: Adapta Kinase Assay (LRRK2_IC50 assay)
Format: biochemical
Conditions: inhibition of LRRK2 G2019S
Procedure: In Adapta™ Kinase Assay (LRRK2_IC50 assay): the Kinase Reaction Buffer contained 5× Kinase Buffer S (Life Technologies, PV5213) and 2 mM DTT (Life Technologies, P2325).
The Adapta® universal kinase assay is a homogenous, fluorescent based immunoassay for the detection of ADP. In contrast to ATP depletion assays, the Adapta® assay is extremely sensitive to ADP formation such that a majority of the signal change occurs in the first 10-20% conversion of ATP to ADP. This makes the Adapta® universal kinase assay ideally suited for use with low activity kinases.
Prepare a 1× solution of kinase reaction buffer from the 5× Kinase Buffer S stock (listed above) by adding 2 ml of 5× stock to 8 ml of H2O to make 10 ml of 1× kinase reaction buffer. To this, add 20 μl of 1 M DTT.
Kinase reactions are performed in a 10 μl volume in low-volume 384-well plates. […] Other non—treated assay plates, while not tested, may also be suitable. The concentration of substrate in the assay is 100 μM, and the 1× kinase reaction buffer consists of 50 mM Tris-HCl pH8.5, 10 mM MgCl2, 1 mM EGTA, 0.01% Brij-35, and 2 mM DTT, plus any additional additives that may be required for a specific kinase. […] The plate is allowed to equilibrate at room temperature for at least 30 minutes before being read on a plate reader configured for Adapta™ TR-FRET.
The data presented in this document were generated using a BMG LABTECH PHERAstar plate reader using the appropriate filters and instrument settings for Adapta™. The Test Compounds are screened in 1% DMSO (final) in the well. For 8 point titrations, 5-fold serial dilutions are conducted from the starting concentration.
IC50 estimates were obtained using the software XLfit (IDBS Inc.).

The chains behind the UniProt entries cited, without tags or fusion partners. Residues count along the entry.
UniProt Q5S007, 970-2527 G2019S: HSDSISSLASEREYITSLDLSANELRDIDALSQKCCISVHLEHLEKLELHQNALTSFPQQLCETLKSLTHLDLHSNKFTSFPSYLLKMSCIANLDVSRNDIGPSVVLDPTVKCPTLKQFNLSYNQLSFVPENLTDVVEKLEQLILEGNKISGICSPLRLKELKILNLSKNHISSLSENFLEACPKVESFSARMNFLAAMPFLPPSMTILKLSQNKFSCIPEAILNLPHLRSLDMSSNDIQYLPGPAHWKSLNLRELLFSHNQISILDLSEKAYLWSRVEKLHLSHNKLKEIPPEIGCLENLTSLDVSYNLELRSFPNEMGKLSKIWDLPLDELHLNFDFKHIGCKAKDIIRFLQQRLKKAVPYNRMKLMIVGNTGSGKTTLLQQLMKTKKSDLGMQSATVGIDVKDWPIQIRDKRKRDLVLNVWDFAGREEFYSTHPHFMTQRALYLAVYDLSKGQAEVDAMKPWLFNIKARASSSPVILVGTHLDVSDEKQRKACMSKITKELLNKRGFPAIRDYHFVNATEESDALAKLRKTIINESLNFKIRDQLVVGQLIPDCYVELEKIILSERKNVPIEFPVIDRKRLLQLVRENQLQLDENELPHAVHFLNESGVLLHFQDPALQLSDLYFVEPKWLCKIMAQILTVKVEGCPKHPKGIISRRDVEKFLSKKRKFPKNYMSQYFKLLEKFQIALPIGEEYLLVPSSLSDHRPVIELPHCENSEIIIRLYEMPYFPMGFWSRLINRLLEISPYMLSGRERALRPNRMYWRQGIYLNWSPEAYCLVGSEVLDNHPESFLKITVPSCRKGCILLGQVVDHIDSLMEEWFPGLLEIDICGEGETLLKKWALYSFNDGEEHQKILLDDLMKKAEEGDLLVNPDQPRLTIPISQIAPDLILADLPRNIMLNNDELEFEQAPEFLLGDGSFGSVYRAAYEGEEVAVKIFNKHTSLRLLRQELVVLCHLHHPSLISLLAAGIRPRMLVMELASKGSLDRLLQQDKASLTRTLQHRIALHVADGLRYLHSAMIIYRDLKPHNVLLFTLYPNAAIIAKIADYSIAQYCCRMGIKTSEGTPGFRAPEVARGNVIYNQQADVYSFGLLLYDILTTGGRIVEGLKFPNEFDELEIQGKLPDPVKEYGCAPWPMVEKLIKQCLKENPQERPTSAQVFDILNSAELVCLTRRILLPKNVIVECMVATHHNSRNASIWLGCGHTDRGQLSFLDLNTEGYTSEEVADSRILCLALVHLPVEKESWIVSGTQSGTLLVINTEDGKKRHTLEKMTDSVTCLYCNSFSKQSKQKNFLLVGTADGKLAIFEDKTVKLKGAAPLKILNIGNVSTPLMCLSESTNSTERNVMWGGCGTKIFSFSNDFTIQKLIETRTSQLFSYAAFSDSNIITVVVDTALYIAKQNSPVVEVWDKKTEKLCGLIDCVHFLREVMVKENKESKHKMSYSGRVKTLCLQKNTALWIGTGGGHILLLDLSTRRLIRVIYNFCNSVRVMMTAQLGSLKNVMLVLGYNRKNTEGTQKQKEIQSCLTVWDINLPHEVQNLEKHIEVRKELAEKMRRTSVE

Row | Structure (SMILES) | IC50 [µM]
1 | CCN1CCCc2n[nH]c3ccnc1c23 [Example 17, 6-ethyl-6,7,8,9-tetrahydro-2H-1,2,5,6-tetraazabenzo[cd]azulene] | 0.81
2 | c1cc2[nH]nc3c2c(n1)N(C1CCC1)CCC3 [Example 22, 6-cyclobutyl-6,7,8,9-tetrahydro-2H-1,2,5,6-tetraazabenzo[cd]azulene] | 0.14
3 | c1ccc2c(c1)CN(C1CCOCC1)c1nccc3[nH]nc-2c13 [Example 58] | 0.074
